Publication PMC12631985 (Environmental Science & Technology, 2025)

Tested on: AR mRNA
Test: Quantitative RT-PCR for DHT-induced AR mRNA expression in 22Rv1/MMTV-GRKO cells
Format: cell-based, human
Details: with DHT; highest noncytotoxic concentration (≥80% viability); n = 3

In the case of `CC(O)(CS(=O)(=O)c1ccc(F)cc1)C(=O)Nc1ccc(C#N)c(C(F)(F)F)c1` (stereo not shown) [bicalutamide, reference compound], the “reduction in AR mRNA levels compared to the DHT-only treatment group” value is reported as 62.5%.
